Yeast mating assay 1: variants of the scFv Ab-14

The measurements come from Engelhart et al. 2022 (doi:10.1038/s41597-022-01779-4) through the FLAb antibody collection.

Binding partner: SARS-CoV-2 spike HR2 peptide, sequence PDVDLGDISGINAS.

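In library AAYL50, one, two or three CDR residues were substituted; doubles and triples were drawn at random. In AlphaSeq, yeast of one mating type display the scFv and yeast of the other type display the target. After mating in shaken culture at 30 °C for 16 h, diploids were selected and their barcode pairs sequenced. Read counts were normalised to the haploid input and turned into Kd by a linear fit to BCL2-family pairs of known affinity, for each replicate. Each pool was mated in three replicate cultures.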

Ab-14 is the parent antibody, in scFv form: VH, then three GGGGS repeats, then VL. The heavy chain is unchanged in all variants.
VH: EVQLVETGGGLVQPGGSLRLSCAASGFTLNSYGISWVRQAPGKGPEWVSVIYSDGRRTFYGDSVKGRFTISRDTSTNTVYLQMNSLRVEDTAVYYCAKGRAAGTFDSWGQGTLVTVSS
VL: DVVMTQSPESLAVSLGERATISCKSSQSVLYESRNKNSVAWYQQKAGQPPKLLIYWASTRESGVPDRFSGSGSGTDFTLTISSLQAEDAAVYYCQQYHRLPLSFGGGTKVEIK

Variants are written as CDR1, CDR2 and CDR3 of the light chain (limits as in the source). Parent: KSSQSVLYESRNKNSVA, WASTRES, QQYHRLPLS. Every variant below is changed at Y97 of the VL (sequential numbering). Numbers give log10(Kd / nM), so 0 is 1 nM and 3 is 1 µM. Smaller is tighter. A mean of the replicates is given; it leaves out those without a signal. An entry "nd" has no value in the source: the pair was not observed among the diploids in that replicate. This suggests poor binding but is not conclusive. Parent in this assay: reference entry 0.65, copy in this library 1.68.

| CDR-L1 | CDR-L2 | CDR-L3 | log10 Kd (nM) by replicate | log10 Kd (nM), mean |
|---|---|---|---|---|
| KSSQSVLYESRNKNSVA | WASTRES | SQFHRLGLS | nd / nd / nd | nd |
| KSSQSVLYESRNKNSVA | WASTREM | QQLHRRPLS | 2.19 / 2.21 / 2.29 | 2.23 |
| KSSQSVLYWSRNKNSIA | WASTRES | QQLHRLPLS | 1.43 / 1.54 / 1.39 | 1.46 |
| KSSQSVWYESRNKNSMA | WASTRES | QQQHRLPLS | 1.35 / 1.42 / 1.38 | 1.38 |
| KSSQSVLYEARNKNSVA | GASTRES | QQTHRLPLS | 5.54 / 4.54 / nd | 5.04 |
| KSSQSVLYESRNKNSVA | AAHTRES | QQCHRLPLS | nd / nd / nd | nd |
| KSSQSVLLESRNKNSVA | WASTRES | QQGHRLPLS | 3.45 / nd / 4.87 | 4.16 |
| KSSQSPLGESRNKNSVA | WASTRES | QQCHRLPLS | 0.39 / 0.53 / 0.71 | 0.54 |
| KSSQSVLYESYNGNSVA | WASTRES | QQAHRLPLS | nd / nd / nd | nd |
| KSSQSVLYESRNKNRVA | WASTREA | QQNHRLPLS | nd / 3.67 / nd | 3.67 |
| KSSQSVLYESRNKNSVA | WAQTRES | QQIHDLPLS | 0.95 / 1.04 / 1.07 | 1.02 |
| KSLQSVLYESRNKNSVA | WASTRES | QQGHRLPLS | 1.64 / 1.79 / 1.66 | 1.70 |
| KSSQSVLYESRNHNSVA | WASTRES | QQHHRLPRS | nd / nd / nd | nd |
| KSSQSVLGESRNKNSVA | WASTRES | QQHARLPLS | 0.29 / 0.59 / 0.48 | 0.45 |
| KSSQSVLYQSRNKNSVA | WASTRES | QQQHRLPLF | 1.57 / 1.43 / 1.52 | 1.51 |
| KSSQSWLYESRNKNSVA | WKSTRES | QQVHRLPLS | nd / nd / nd | nd |
| KSSQSVIYESRNKNSVA | WASTRES | QQPHRLPCS | 1.39 / 1.48 / 1.48 | 1.45 |
| KSSQRVLYESRLKNSVA | WASTRES | QQNHRLPLS | nd / nd / nd | nd |
| KSSQSVLYESMNKLSVA | WASTRES | QQMHRLPLS | nd / nd / nd | nd |
| KSSQSVLYESRNKNSVA | WASTRES | FQIHRLPLS | 0.83 / 1.11 / 0.98 | 0.97 |
| KSNQSVLYESRNKNSVA | WASTREH | QQMHRLPLS | 2.87 / 2.82 / 2.46 | 2.72 |
| KSSQSVLYESRNKYSVA | WASTRES | QQWHRLPLS | nd / 3.65 / nd | 3.65 |
| KSSQSVLYESRNKNSVA | WYSTRES | SQEHRLPLS | nd / nd / nd | nd |
| KSSQSVLYESRNKNSVA | WASTRES | QQRHRGPLS | nd / nd / nd | nd |
| KSSQSVLYESRNKNSVA | WASTRES | QQHHRLPLS | nd / nd / nd | nd |
| KSSQSVLYESRNHNSVA | WAWTRES | QQGHRLPLS | 4.93 / 3.98 / 3.44 | 4.12 |
| KSSQSVLYESRFKNSVA | WVSTRES | QQCHRLPLS | 6.39 / nd / 4.06 | 5.22 |
| KSSIHVLYESRNKNSVA | WASTRES | QQFHRLPLS | nd / nd / nd | nd |
| KSSQSVLYESRNKNSVA | WASTRES | QVRHVLPLS | 1.33 / 1.62 / 1.73 | 1.56 |
| SSSQSVLYESRNLNSVA | WASTRES | QQPHRLPLS | nd / nd / nd | nd |
| KSSQSVLYIIRNKNSVA | WASTRES | QQNHRLPLS | nd / 4.03 / nd | 4.03 |
| SSSQSVLYESRNKRSVA | WASTRES | QQQHRLPLS | nd / nd / nd | nd |
| KKSLSVLYESRNKNSVA | WASTRES | QQKHRLPLS | 5.59 / 3.50 / nd | 4.54 |
| KSSQSVLYESRNKNSVE | WKSTRES | QQMHRLPLS | 4.22 / nd / nd | 4.22 |
| KSSQSVLYESRNKNSVA | HASTSES | QQGHRLPLS | 0.58 / 0.81 / 0.80 | 0.73 |
| KSSQGALYESRNKNSVA | WASTRES | QQEHRLPLS | nd / nd / nd | nd |
| KSSQSQLYESRNKNSVA | WAVTRES | QQTHRLPLS | 1.93 / 2.10 / 1.81 | 1.95 |
| KSSQSGLYESRNKNSVA | AASTRES | QQFHRLPLS | 0.85 / 0.94 / 1.05 | 0.95 |
| KQSQSVLYESRNKNEVA | WASTRES | QQWHRLPLS | 2.14 / 1.87 / 2.60 | 2.20 |
| KSSQSVLYESRNKNSVW | WASTRES | QQTHRQPLS | nd / 5.03 / 4.10 | 4.56 |
| KSSQTVLYESRNKNSVA | WASYRES | QQWHRLPLS | 2.65 / 2.00 / 1.03 | 1.89 |
| KSSQSVLYESRNKNSVA | WQSCRES | QQCHRLPLS | nd / nd / nd | nd |

The closing 7 entries, repeated:

| CDR-L1 | CDR-L2 | CDR-L3 | log10 Kd (nM) by replicate | log10 Kd (nM), mean |
|---|---|---|---|---|
| KSSQGALYESRNKNSVA | WASTRES | QQEHRLPLS | nd / nd / nd | nd |
| KSSQSQLYESRNKNSVA | WAVTRES | QQTHRLPLS | 1.93 / 2.10 / 1.81 | 1.95 |
| KSSQSGLYESRNKNSVA | AASTRES | QQFHRLPLS | 0.85 / 0.94 / 1.05 | 0.95 |
| KQSQSVLYESRNKNEVA | WASTRES | QQWHRLPLS | 2.14 / 1.87 / 2.60 | 2.20 |
| KSSQSVLYESRNKNSVW | WASTRES | QQTHRQPLS | nd / 5.03 / 4.10 | 4.56 |
| KSSQTVLYESRNKNSVA | WASYRES | QQWHRLPLS | 2.65 / 2.00 / 1.03 | 1.89 |
| KSSQSVLYESRNKNSVA | WQSCRES | QQCHRLPLS | nd / nd / nd | nd |

As a blank, each scFv also met three strains without target: over library AAYL50, 18% of these pairings were detected, typically at 4.19 and seldom below 2.99.